Measured values published in PubChem BioAssay AID492967 (ICCB-Longwood Screening Facility, Harvard Medical School, 2010).
The entries are a selection whose mix differs from that of the whole data set. The source made the active and inactive calls. Cut-off read from the data, not from the text of the source: active = z-score mostly below about -2.9 (no sharp cut-off); inactive = mostly above about -1.9.

The compounds below were run on CapD gamma-glutamyltranspeptidase (Bacillus anthracis Ames Ancestor) (assay: inhibition of CapD gamma-glutamyltranspeptidase – biochemical, fluorescence intensity, primary screen (AID 492967)). Conditions: purified CapD enzyme, fluorescence intensity read-out; stronger effect = lower value.

SMILES | z-score
CN(CCCl)CCCl | inactive: 0.21
